From US8258130B2 (Sanofi, priority 2007, dated 2012) come the findings set out here.

Chains of the proteins cited; added tags and fusions are not shown.
UniProt O60760, whole entry: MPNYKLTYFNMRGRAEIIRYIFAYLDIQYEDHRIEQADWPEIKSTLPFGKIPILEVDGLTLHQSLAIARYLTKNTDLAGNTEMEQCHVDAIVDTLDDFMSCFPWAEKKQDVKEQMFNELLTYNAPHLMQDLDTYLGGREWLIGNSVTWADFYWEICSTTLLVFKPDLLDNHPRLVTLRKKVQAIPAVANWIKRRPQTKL

This assay addresses human h-PGDS (Homo sapiens, UniProt O60760). Nature of the assay: Enzyme Immunoassay (EIA) method, inhibition of hematopoietic PGD2 synthase. Particulars: EIA assay, PGD2 formed from PGH2 by human h-PGDS. Here is the method: Assay 2: Enzyme Immunoassay (EIA) Method
• a. Preparation of 0.1M K2HPO4/KH2PO4 buffer (pH 7.4) • Prepare 0.1 M KH2PO4 from 1M KH2PO4 (Sigma, Cat# P-8709) • Prepare 0.1 M K2HPO4 from powder of K2HPO4 (Fisher, BP363-500) • Mix 0.1 M K2HPO4 with 0.1 M KH2PO4 to adjust pH to 7.4. • b. Preparation of 0.5% γ-globulin • Add 0.1 g of γ-globulin (Sigma, Cat# G-5009) to 20 mL 0.1 M K2HPO4/KH2PO4 buffer (pH 7.4) and make 1-mL/vial aliquots and store in −80° C. • c. Preparation of 100 mM GSH • Add 307 mg of GSH (Sigma, Cat# G-6529) to 10 mL 0.1 M K2HPO4/KH2PO4 buffer (pH 7.4) and store at −80° C. • d. Preparation of Reaction buffer: • 198 mL of 0.1M K2HPO4/KH2PO4 buffer (pH 7.4) • 2 mM GSH—Prepared from 100 mM GSH • 0.4 g Glycerol • 2 mL of 0.5% γ-globulin • Add 0.4 g of glycerol and 2 mL of 0.5% γ-globulin to 198 mL of 0.1 M K2HPO4/KH2PO4 • buffer (pH7.4). • Add 0.4 mL of 100 mM GSH to 19.6 mL reaction buffer before the assay (enough for two 96-well plates). • e. […]
• 2. […] Total PGD2 levels (pg/mL) were determined in the samples by EIA kits (Caymen Chemical, Catalog No. 500151) Calculate Amount of PGD2 as Below • Calculated % Positive control according to the equation below; % Positive control=(Compound value−Negative control)/(Positive value−Negative control value)×100. […]

On to `CN(NC(=O)c1cnc(-c2ccccc2)nc1)c1ccc(C(F)(F)F)cn1`, for which the IC50 was 100 nM.

Usually IC50 stands for the concentration that gives 50% inhibition.
